Results published in PMC8125063 (International Journal of Molecular Sciences, 2021).

What was measured:
[1] = target: the molecule itself; experiment: native gel or EMSA; Native 9% PAGE; 200 mM Glycine-NaOH pH 9.0, 1 mM MgCl2, with or without 100 µM CoCl2 and/or 10 µM AMP in gel and running buffer; 3 h at 254 V
[2] = target: the molecule itself; experiment: SEC; HiLoad 16/600 Superdex 200 pg; 50 mM HEPES-NaOH pH 7.5, 150 mM KCl, 1 mM MgCl2, with or without 100 µM CoCl2 and/or 10 µM AMP; 0.5 mg protein loaded, 1 mL/min

B1: wild-type human Fructose 1,6-bisphosphatase 2 (Fbp2) (enzyme, UniProt O00757 1-339, looked up)
chain: MTDRSPFETDMLTLTRYVMEKGRQAKGTGELTQLLNSMLTAIKAISSAVRKAGLAHLYGIAGSVNVTGDEVKKLDVLSNSLVINMVQSSYSTCVLVSEENKDAIITAKEKRGKYVVCFDPLDGSSNIDCLASIGTIFAIYRKTSEDEPSEKDALQCGRNIVAAGYALYGSATLVALSTGQGVDLFMLDPALGEFVLVEKDVKIKKKGKIYSLNEGYAKYFDAATTEYVQKKKFPEDGSAPYGARYVGSMVADVHRTLVYGGIFLYPANQKSPKGKLRLLYECNPVAYIIEQAGGLATTGTQPVLDVKPEAIHQRVPLILGSPEDVQEYLTCVQKNQAGS
notes: Fructose 1,6-bisphosphatase 2 (muscle Fbp), human, wild type; Mainly a tetramer in SEC and native PAGE; a small amount of dimers is seen in native PAGE without ligands; also called muscle Fbp; source: expressed and purified as described in [8] with minor modifications (cellulose phosphate column)
[1]
  stoichiometry N: 2
[2]
  stoichiometry N: 4
